Data reported in patent US20230131993A1 (priority 2020, published 2023).

Assay: Oxipres stability test of DragoCalm: Avenanthramide L
Conditions: before and after Oxipres treatment, additive 0.10 %

## CC(=O)c1ccc(O)cc1 [4-Hydroxyacetophenone]
  Degradation of Avenanthramide L (%): 11.1%
